Experimental data reported in ChEMBL document CHEMBL3351542, “Nonpeptide small molecule agonist and antagonist original leads for neuropeptide FF1 and FF2 receptors” (J Med Chem, 2014).

What follows are molecules tested against Delta-type opioid receptor (Homo sapiens, UniProt P41143) (assay: Displacement of [3H]DPDPE from human DOR expressed in HEK293 cells after 60 mins by scintillation counting analysis).

Structure (SMILES) | pKi
N=C(N)NCCNC(=O)C1(Nc2ccccc2)CCN(Cc2ccccc2)CC1 | 5.60
COc1cc(NC2(CNC(=O)CNC(=N)N)CCN(Cc3ccccc3)CC2)cc(OC)c1 | < 5.30
N=C(N)NCC(=O)NCC1(Nc2cccc3ccccc23)CCN(Cc2ccccc2)CC1 | < 5.30
N=C(N)NCC(=O)NCC1(Nc2ccccc2)CCN(Cc2ccccc2)CC1 | < 5.30

pKi: −log10 of the molar value.
